Results from US20110263693A1, “CELASTROL, GEDUNIN, AND DERIVATIVES THEREOF AS HSP90 INHIBITORS” (DANA-FARBER CANCER INSTITUTE, INC., priority 2006, published 2011).

Test system: LNCaP cells

avermectin B1 [reference compound] was tested, and the “viability screen: viability (% [ATP] normalized to R1881-treated control)” value was 53.7%.
